# Literature values, collected in patent US10434213B2, “Controlled delivery system” (Wake Forest University Health Sciences, priority 2010, dated 2019).
# Conditions: Geiger et al. 2003
substance,measurement,value
"Recombinant human BMP-2: Recombinant human bone morphogenetic protein 2, growth factor",Isoelectric point,9
